Measured values taken from PubChem BioAssay AID900 (National Center for Advancing Translational Sciences (NCATS), 2007).
Only a part is listed here, and it is no random draw. Active and inactive are the calls of the source. Calls come from the whole dose curve; as a rule, active = well fitted inhibition curve with a large enough effect; inconclusive = small, poorly fitted or top-dose-only effect; inactive = flat fitted curve, though single readings scatter.

molecular target: Caspase-1 (Homo sapiens) (UniProt P29466); assay: qHTS Assay for Allosteric/Competitive Inhibitors of Caspase-1; details: Caspase-1 enzyme, Ac-WEHD-AFC fluorogenic rate; at 57.5 µM (top of the series);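 note: plate controls were vehicle for no effect and no substrate for full effect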
Excerpt: NIH Molecular Libraries Screening Centers Network [MLSCN]
NIH Chemical Genomics Center [NCGC]
PI Name: Dr. James Wells,
Dr. Enrique Perez-Paya, Dr.Janice Williams, Dr. Dennis Wolan, a person
The caspases (Cysteine Aspartyl Protease) comprise a related family of 14 dimeric proteases that are critical mediators of apoptosis (programmed cell death) and inflammation. The caspases represent an important class of drug targets for stroke, ischemia, cancer and inflammatory diseases. […] One goal of this project was to identify compounds that act as allosteric inhibitors via stabilizing the procaspase form of the enzyme. […]
The biochemical assay was configured using purified caspase 1 at a high enzyme concentration to promote formation of the homodimers and thus facilitate the identification of allosteric inhibitors. […] After initiation of the assay with substrate the plates were rapidly read using an automated robotic system (Kalypsys, Inc.) to maintain consistent timing. […]
Caspase 1 was prepared in buffer (50 mM HEPES pH 7.5, 50 mM KCl, 200 mM NaCl, 10 mM DTT, 0.1% CHAPS) at a concentration of 66.6 nM and 3 uL was dispensed to all wells using black solid Kalypsys 1536-well plates. […] The plates were then exposed using 405 nm excitation/520 nm emission filters for 4 sec and read at 20 sec intervals for 3 min. […]

SMILES | activity change, negative = inhibition
CN(CCCl)CCCl | inactive: -2.95%
O=[N+]([O-])C(Cl)(Cl)Cl | inactive: -3.61%
